Test results as given in ChEMBL document CHEMBL4196051, “Pyrazole-pyrazoline as promising novel antimalarial agents: A mechanistic study” (Eur J Med Chem, 2018).

How the values were obtained:
Heme [1] = assay: Binding affinity to monomeric heme in DMSO/HEPES buffer solution at pH 7.4 by titration analysis
[2] = Resistance Index, ratio of EC50 for chloroquine-resistant Plasmodium falciparum RKL9 to EC50 for chloroquine-sensitive Plasmodium falciparum 3D7; assay type: functional
Heme [3] = assay: Binding affinity to monomeric heme in DMSO/HEPES buffer solution at pH 5.6 by titration analysis
mu-oxodimeric heme = assay: Binding affinity to mu-oxodimeric heme in 0.1M NaOH solution at pH 5.8 by titration analysis

CCN(CC)CCCC(C)Nc1ccnc2cc(Cl)ccc12 (centres undefined) [CHLOROQUINE]
log K (Heme [1]): 5.23 | Ratio EC50 [2]: 3.78 | log K (Heme [3]): 4.72 | log K (mu-oxodimeric heme): 5.68
